## Binding of CDR-mutated scFvs to a peptide of the spike HR2 region

Data: MIT Lincoln Laboratory AlphaSeq set, Engelhart et al. 2022, doi:10.1038/s41597-022-01779-4, as distributed in FLAb.

Target: peptide PDVDLGDISGINAS, taken from heptad repeat 2 (HR2) of SARS-CoV-2 spike.

The variants keep the light chain, the linker and the frameworks of Ab-14 (scFv order VH, three GGGGS repeats, VL).
VH: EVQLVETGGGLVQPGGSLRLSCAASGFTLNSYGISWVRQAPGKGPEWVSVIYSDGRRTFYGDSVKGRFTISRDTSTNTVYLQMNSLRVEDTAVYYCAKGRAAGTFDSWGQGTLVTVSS
VL: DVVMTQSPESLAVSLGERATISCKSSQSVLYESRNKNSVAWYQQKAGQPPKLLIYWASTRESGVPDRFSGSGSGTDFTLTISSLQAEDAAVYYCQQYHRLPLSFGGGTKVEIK

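Library AAYL49 holds single substitutions and randomly drawn double and triple substitutions in the CDRs. AlphaSeq pools MATa yeast showing the antibodies with MATalpha yeast showing the peptide. Pairs that bind mate more often; barcode pairs of the diploids are counted by sequencing. Scores were corrected for input abundance and mapped to Kd with protein pairs of known affinity run in the same pool. Mating was done three times.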

Variants are written as CDR1, CDR2 and CDR3 of the heavy chain (limits as in the source). Parent: GFTLNSYGIS, VIYSDGRRTFYGDSVK, GRAAGTFDS. The read-out is the apparent dissociation constant on a log10 scale (nM): the lower, the stronger. The mean shown is taken over the replicates in which the pair was detected. An entry "ND" has no value in the source: the pair was not observed among the diploids in that replicate. This suggests poor binding but is not conclusive. As a blank, each scFv also met three strains without target: over library AAYL49, 15% of these pairings were detected, typically at 4.06 and seldom below 2.83. For each scFv, signals with the empty controls are counted beside the result, with their mean in brackets.

| # | CDR-H1 | CDR-H2 | CDR-H3 | replicates, log10 nM | log10 Kd (nM), mean | signal with controls |
|---|---|---|---|---|---|---|
| 1 | GFTLNMYGIS | VIYSDGRRTTYGDSVK | GRAAGTFDS | 3.86 2.86 2.12 | 2.95 | 1 of 9 (5.20) |
| 2 | GFCLNSYGIS | VWYSDGRRTFYGDSAK | GRAAGTFDS | 3.71 ND 5.07 | 4.39 | 1 of 9 (5.29) |
| 3 | GSTLNSYGIR | VIYSDGRRTFYGDSVK | GRAAGFFDS | 3.69 ND 4.15 | 3.92 | 6 of 9 (4.32) |
| 4 | GFTLNSYGIS | VIYSDGRRTKYKDSVK | MRAAGTFDS | ND 5.48 3.40 | 4.44 | 5 of 9 (4.84) |
| 5 | GFTLNSYGIR | VIYSDGRKTFYGDSKK | GRAAGTFDS | ND 4.70 ND | 4.70 | 1 of 9 (2.77) |
| 6 | GFTLNSYGIS | VMYSDGRRTFYGDSVK | GRAAGTFSS | 1.33 1.55 1.99 | 1.62 | 1 of 9 (4.31) |
| 7 | GFTLNNYGCS | VIYIDGRRTFYGDSVK | GRAAGTFDS | ND ND ND | ND | 2 of 9 (3.16) |
| 8 | GFHLYSYDIS | VIYSDGRRTFYGDSVK | GRAAGTFDS | ND ND ND | ND | 1 of 9 (2.58) |
| 9 | GFTLNSYGIS | VIYSVGDRTFYGDSVK | GRAAGTFDS | ND ND 4.17 | 4.17 | 0 of 9 |
| 10 | GFTLNSHGIS | VIYSDGRRTFYGDSVF | LRAAGTFDS | 4.11 ND ND | 4.11 | 0 of 9 |
| 11 | GFTLNSYGIS | VIYSDGRRTFYGDSVK | GRAATTQDS | 1.79 1.88 2.02 | 1.90 | 0 of 9 |
| 12 | AFTLISYGIS | VIYSDGRRTFYGDSVK | GRAAGCFDS | 4.65 3.86 ND | 4.26 | 1 of 9 (3.93) |
| 13 | GFTLNSYGFS | VIYSDGRRTFYGDLVK | GRAAGTFDS | ND ND ND | ND | 1 of 9 (2.50) |
| 14 | GFTLNSYGIS | VYYSDGRRTFMGDSVK | GREAGTFDS | 3.59 4.91 ND | 4.25 | 1 of 9 (4.83) |
| 15 | GFTLNSYGIS | VEYSPGRRTFYGDSVK | GRAAGTFDS | ND ND ND | ND | 0 of 9 |
| 16 | GFTLNSYGIS | VIYSDGRSTFYGDSQK | GRAANTFDS | 6.08 ND ND | 6.08 | 0 of 9 |
| 17 | GFTLNSYGIS | WIYSDFRRTFYGDSVK | GRAAGTFDS | 4.40 ND ND | 4.40 | 3 of 9 (4.44) |
| 18 | GFTLHSYWIS | VIYSDGCRTFYGDSVK | GRAAGTFDS | ND ND 5.20 | 5.20 | 1 of 9 (3.59) |
| 19 | GFTLNSYGIS | VIKSDGRRTFYGRSVK | GRAANTFDS | ND ND ND | ND | 0 of 9 |
| 20 | GFTLNSYGIS | VIYSDGRRTFYGESVK | GRAAGTFLD | 1.26 1.26 1.38 | 1.30 | 0 of 9 |
| 21 | GFTLNSYGIT | VIYCDGRRTFYGDSVK | SRAAGTFDS | 5.58 ND 5.66 | 5.62 | 4 of 9 (4.25) |
| 22 | GFTFNSYGIS | VIYSDNRRTFYGDSVK | GRQAGTFDS | ND ND ND | ND | 0 of 9 |
| 23 | YFTLNSYGIS | VIYSDGRRTFYRDSVK | GRAAGTFDD | 3.37 3.70 3.75 | 3.61 | 0 of 9 |
| 24 | GFTLNSYGIS | VIYSDGRRTFIGRSVK | GRARGTFDS | ND ND ND | ND | 2 of 9 (4.78) |
| 25 | GFTLNKYGIS | VIYSDIRRTFYGDSGK | GRAAGTFDS | ND ND ND | ND | 2 of 9 (3.51) |
| 26 | GFTLNSMGIS | VIYSDGRRTIYGDDVK | GRAAGTFDS | ND ND ND | ND | 0 of 9 |
| 27 | GFTLNSYGIS | VIYSDGRREFYVDSVK | GRAAGTFDY | 1.42 2.06 1.92 | 1.80 | 0 of 9 |
| 28 | GFTLNSYGMS | VIYSDRRRTFYGDSVK | GRIAGTFDS | ND ND ND | ND | 0 of 9 |
| 29 | GFTQNSYGIS | VIYSDGRRTFYGDSVK | GRAAETFCS | ND ND ND | ND | 0 of 9 |
| 30 | GFTLNFYGIS | VLYSDGRRTFYGDSVK | GRAAGTADS | ND ND ND | ND | 1 of 9 (5.75) |
| 31 | GFTLNSNYIS | VIYSDGRRTFYGDSVK | ERAAGTFDS | 4.60 ND 4.39 | 4.49 | 1 of 9 (4.84) |
| 32 | GFKLNSYGIS | VAYSDGRRTFGGDSVK | GRAAGTFDS | 3.92 3.78 ND | 3.85 | 0 of 9 |

Top 5 of the variants detected in all replicates, tightest first:

{"CDR-H1": "GFTLNSYGIS", "CDR-H2": "VIYSDGRRTFYGESVK", "CDR-H3": "GRAAGTFLD", "replicates, log10 nM": "1.26 1.26 1.38", "log10 Kd (nM), mean": "1.30", "signal with controls": "0 of 9"}
{"CDR-H1": "GFTLNSYGIS", "CDR-H2": "VMYSDGRRTFYGDSVK", "CDR-H3": "GRAAGTFSS", "replicates, log10 nM": "1.33 1.55 1.99", "log10 Kd (nM), mean": "1.62", "signal with controls": "1 of 9 (4.31)"}
{"CDR-H1": "GFTLNSYGIS", "CDR-H2": "VIYSDGRREFYVDSVK", "CDR-H3": "GRAAGTFDY", "replicates, log10 nM": "1.42 2.06 1.92", "log10 Kd (nM), mean": "1.80", "signal with controls": "0 of 9"}
{"CDR-H1": "GFTLNSYGIS", "CDR-H2": "VIYSDGRRTFYGDSVK", "CDR-H3": "GRAATTQDS", "replicates, log10 nM": "1.79 1.88 2.02", "log10 Kd (nM), mean": "1.90", "signal with controls": "0 of 9"}
{"CDR-H1": "GFTLNMYGIS", "CDR-H2": "VIYSDGRRTTYGDSVK", "CDR-H3": "GRAAGTFDS", "replicates, log10 nM": "3.86 2.86 2.12", "log10 Kd (nM), mean": "2.95", "signal with controls": "1 of 9 (5.20)"}

For reference, the parent read 0.65 as the reference entry and 4.11 (one replicate of three) as a member of this library.